“And” between values parts separate entries of the source, which are not always exact repeats. Equal entries are not always repeated. For some of these results: Most of the hits are listed elsewhere, so they are rarer here than in the full data. Records with an inconclusive call do not appear. This is a selection; strong and weak results do not stand in their true shares. The source made the active and inactive calls. Unless noted, calls follow the shape of the dose curve; as a rule, active = well fitted curve in the direction sought with a large enough effect in the repeat runs; inconclusive = weak or mixed curves; inactive = no such curve, though single readings can be large; an effect the other way counts as inactive or inconclusive.

By UniProt entry, the sequences of proteins in these tests, tags left out. Where a name states a change or a piece, a line headed by the entry shows the natural chain unless it says otherwise.
UniProt P10275: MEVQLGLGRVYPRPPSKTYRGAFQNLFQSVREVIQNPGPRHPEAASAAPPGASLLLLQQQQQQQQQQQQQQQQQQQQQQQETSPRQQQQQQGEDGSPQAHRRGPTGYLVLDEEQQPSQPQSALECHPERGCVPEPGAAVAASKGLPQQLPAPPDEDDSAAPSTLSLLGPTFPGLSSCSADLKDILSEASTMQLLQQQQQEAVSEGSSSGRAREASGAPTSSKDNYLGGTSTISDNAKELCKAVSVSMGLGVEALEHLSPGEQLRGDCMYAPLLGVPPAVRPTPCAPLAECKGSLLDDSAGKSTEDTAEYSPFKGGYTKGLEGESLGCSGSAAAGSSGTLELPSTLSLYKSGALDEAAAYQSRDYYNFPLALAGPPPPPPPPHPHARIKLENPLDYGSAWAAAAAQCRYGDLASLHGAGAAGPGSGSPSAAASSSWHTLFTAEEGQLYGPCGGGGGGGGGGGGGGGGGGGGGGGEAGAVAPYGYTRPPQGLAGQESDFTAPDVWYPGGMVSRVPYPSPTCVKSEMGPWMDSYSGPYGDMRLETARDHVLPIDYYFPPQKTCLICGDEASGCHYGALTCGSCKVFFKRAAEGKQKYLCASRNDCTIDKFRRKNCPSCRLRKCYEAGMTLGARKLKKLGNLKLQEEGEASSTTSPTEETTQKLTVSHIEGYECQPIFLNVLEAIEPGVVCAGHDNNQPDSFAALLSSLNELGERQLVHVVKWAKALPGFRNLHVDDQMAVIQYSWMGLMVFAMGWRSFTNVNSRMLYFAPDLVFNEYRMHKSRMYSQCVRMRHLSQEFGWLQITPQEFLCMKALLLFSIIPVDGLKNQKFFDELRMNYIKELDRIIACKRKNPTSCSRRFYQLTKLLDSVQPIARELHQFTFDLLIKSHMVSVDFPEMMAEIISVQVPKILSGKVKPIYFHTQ
UniProt P22303: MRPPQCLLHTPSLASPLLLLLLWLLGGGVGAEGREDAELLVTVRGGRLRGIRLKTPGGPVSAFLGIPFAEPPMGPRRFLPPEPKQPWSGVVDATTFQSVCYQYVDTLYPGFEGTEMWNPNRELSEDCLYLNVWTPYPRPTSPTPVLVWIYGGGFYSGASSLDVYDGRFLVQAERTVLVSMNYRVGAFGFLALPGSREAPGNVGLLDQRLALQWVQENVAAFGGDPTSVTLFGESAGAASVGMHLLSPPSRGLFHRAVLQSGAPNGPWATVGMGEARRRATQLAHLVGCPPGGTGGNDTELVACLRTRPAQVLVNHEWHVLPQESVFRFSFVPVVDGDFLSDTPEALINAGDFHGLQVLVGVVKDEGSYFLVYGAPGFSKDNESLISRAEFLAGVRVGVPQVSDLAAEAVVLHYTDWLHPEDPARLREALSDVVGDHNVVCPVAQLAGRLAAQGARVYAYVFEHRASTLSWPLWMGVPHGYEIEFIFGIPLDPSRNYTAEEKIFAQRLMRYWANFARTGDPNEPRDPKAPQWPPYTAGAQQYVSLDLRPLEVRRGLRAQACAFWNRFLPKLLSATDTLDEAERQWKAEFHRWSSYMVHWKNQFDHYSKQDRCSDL
UniProt Q92731, whole entry, looked up: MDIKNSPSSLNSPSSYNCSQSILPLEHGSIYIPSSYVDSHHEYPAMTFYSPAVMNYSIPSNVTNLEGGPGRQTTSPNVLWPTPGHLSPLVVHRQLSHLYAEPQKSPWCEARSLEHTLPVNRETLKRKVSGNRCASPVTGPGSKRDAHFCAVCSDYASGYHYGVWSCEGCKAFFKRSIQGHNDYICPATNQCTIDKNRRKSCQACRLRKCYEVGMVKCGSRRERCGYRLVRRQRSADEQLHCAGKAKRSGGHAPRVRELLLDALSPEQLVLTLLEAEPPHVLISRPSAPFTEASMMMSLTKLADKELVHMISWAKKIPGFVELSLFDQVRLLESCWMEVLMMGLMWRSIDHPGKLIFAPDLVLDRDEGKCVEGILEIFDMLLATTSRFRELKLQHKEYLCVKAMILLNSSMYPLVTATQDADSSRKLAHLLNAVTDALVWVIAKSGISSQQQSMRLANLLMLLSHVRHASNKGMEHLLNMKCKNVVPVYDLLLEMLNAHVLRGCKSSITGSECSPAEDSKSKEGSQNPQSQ
UniProt P03372, whole entry, looked up: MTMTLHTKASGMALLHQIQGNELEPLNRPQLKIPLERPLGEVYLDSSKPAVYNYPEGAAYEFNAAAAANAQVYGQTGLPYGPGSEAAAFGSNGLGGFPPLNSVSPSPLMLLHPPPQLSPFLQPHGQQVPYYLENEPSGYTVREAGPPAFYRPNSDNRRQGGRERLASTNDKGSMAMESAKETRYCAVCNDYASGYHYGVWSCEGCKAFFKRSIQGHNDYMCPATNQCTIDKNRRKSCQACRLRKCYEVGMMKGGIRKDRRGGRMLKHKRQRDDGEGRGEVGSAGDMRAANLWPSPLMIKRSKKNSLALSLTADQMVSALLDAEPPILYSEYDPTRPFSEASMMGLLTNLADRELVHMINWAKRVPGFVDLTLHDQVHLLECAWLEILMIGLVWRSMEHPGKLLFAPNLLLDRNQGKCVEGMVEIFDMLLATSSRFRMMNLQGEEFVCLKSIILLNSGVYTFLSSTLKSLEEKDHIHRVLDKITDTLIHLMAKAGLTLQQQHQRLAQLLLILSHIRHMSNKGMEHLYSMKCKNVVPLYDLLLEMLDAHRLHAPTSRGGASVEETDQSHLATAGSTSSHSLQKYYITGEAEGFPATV
UniProt Q12809: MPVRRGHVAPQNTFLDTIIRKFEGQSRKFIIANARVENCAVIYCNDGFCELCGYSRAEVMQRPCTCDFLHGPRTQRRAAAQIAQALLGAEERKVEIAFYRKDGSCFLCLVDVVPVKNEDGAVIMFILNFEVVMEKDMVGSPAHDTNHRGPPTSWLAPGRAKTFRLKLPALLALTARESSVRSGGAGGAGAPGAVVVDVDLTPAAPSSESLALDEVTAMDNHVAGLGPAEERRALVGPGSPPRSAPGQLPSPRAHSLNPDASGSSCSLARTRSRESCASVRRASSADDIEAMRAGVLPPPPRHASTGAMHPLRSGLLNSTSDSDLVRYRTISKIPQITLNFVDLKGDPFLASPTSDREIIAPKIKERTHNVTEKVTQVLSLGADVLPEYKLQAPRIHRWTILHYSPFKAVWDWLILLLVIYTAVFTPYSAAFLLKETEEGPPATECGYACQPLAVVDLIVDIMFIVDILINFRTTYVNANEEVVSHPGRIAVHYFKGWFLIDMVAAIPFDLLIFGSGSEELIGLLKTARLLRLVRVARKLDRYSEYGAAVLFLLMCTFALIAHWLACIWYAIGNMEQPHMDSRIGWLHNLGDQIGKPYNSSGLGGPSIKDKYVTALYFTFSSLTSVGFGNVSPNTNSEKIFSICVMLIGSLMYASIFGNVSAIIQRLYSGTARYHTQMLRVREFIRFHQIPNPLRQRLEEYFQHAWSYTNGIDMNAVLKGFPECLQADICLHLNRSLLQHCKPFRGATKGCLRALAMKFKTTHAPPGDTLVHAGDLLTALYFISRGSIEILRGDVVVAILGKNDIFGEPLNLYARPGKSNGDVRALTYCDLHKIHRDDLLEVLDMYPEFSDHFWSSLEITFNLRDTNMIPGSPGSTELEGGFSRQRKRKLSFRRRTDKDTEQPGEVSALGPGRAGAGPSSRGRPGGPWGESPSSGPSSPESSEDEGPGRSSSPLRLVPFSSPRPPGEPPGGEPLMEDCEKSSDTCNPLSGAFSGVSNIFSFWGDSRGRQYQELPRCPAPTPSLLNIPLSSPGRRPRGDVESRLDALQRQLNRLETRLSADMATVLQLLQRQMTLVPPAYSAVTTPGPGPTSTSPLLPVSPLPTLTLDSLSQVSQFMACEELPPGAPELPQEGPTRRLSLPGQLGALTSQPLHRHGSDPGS

The text below walks through data of PubChem BioAssay (Tox21).

Experiment [1] addresses Androgen receptor (Homo sapiens) (UniProt P10275). Briefly: qHTS assay to identify small molecule antagonists of the androgen receptor (AR) signaling pathway (AID 743035; active = well fitted inhibition curve with a large enough effect in the signal ratio in the repeat runs, not every such curve was filed as active; the % refers to the signal ratio; also: potency is read from the fitted curve at half-maximal effect). (qHTS replaces the single test concentration by a dilution series.)
For experiment [2] the target is unchanged. Briefly: qHTS assay to identify small molecule agonists of the androgen receptor (AR) signaling pathway using the MDA cell line (AID 743040; also: % is scaled to controls: 0 for no effect and ±100 for the full control effect; nearly all actives have a fitted effect of over 20% in size). The settings on record: MDA-kb2 AR-luc cells, MMTV luciferase, 16 h, active compounds read high; at 70.3 µM (top of the series) unless noted.
For experiment [3] the target is unchanged. Put plainly: qHTS assay to identify small molecule antagonists of the androgen receptor (AR) signaling pathway using the MDA cell line (AID 743042; also: % is scaled to controls: 0 for no effect and ±100 for the full control effect; nearly all actives have a fitted effect of over 55% in size).
Experiment [4] in a line: qHTS assay to identify small molecule agonists of the NFkB signaling pathway (AID 1159509; active = well fitted curve in the direction sought with a large enough effect in the signal ratio in the repeat runs, not every such curve was filed as active; the % refers to the signal ratio; also: % is scaled to controls: 0 for no effect and ±100 for the full control effect). The conditions noted are these: NFkB-bla ME-180 cells, beta-lactamase FRET ratio, 5 h. In short, it runs like this: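 After overnight attachment, reporter cells received test compounds, DMSO or positive controls and were incubated 5 hr at 37 C. FRET substrate was then added for 1.5 hr at room temperature before dual-emission fluorescence reading.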

A short description of experiment [5]: qHTS assay to identify small molecule antagonists of the retinoic acid receptor (RAR) signaling pathway (AID 1159552; also: nearly all actives have a fitted effect of over 50% in size; also: potency is read from the fitted curve at half-maximal effect). In short, it runs like this: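 Using a RARE-driven luciferase construct in C3RL4 cells, retinol at 1 uM final provided the agonist stimulus while compounds were co-applied. After 6 hours at 37 C, luminescence was recorded to flag inhibitors of retinol signaling.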

Experiment [6] addresses Androgen receptor (Homo sapiens) (UniProt P10275). Briefly: qHTS assay to identify small molecule antagonists of the androgen receptor (AR) signaling pathway using the MDA cell line in the presence of 0.5 nM R1881 (AID 1259243). Also: % is scaled to controls: 0 for no effect and ±100 for the full control effect; nearly all actives have a fitted effect of over 50% in size.
Experiment [7] has the same target. Briefly: qHTS assay to identify small molecule agonists of the androgen receptor (AR) signaling pathway in the presence of an antagonist (AID 1259381; calls by dose curve; also: % is scaled to controls: 0 for no effect and ±100 for the full control effect; nearly all actives have a fitted effect of over 15% in size). The conditions noted are these: MDA-kb2 MMTV-luciferase, AR agonist + nilutamide, 16 h.
The target of experiment [8] is Acetylcholinesterase (Homo sapiens) (UniProt P22303). Put plainly: Acetylcholinesterase (AChE) small molecule antagonists: colormetric cell-based qHTS assay (AID 1347395; calls by dose curve; also: % is scaled to controls: 0 for no effect and ±100 for the full control effect; nearly all actives have a fitted effect of over 30% in size). The conditions noted are these: SH-SY5Y cells AChE activity, colorimetric (Ellman); at 52.9 µM (top of the series). In a few lines:
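Neuroblastoma line SH-SY5Y supplied the enzyme; cells were preincubated with compound for 30 min at 37 C and 5% CO2. Acetylthiocholine with DTNB was then added for 90 min at 37 C, and thiocholine was measured by colour.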

Experiment [9] shares this target. Put plainly: Acetylcholinesterase (AChE) small molecule antagonists: enzyme-based qHTS assay (AID 1347397; calls by dose curve; also: nearly all actives have a fitted effect of over 55% in size; also: potency is read from the fitted curve at half-maximal effect). The conditions noted are these: Potency: AChE enzyme activity inhibition. In short, it runs like this:
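Enzyme inhibition was scored from DTNB-detected thiocholine formed by recombinant human AChE acting on acetylthiocholine. The 30 min compound preincubation and 10 min substrate reaction were both run at room temperature, with DMSO as vehicle control.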

Experiment [10] shares this target. Put plainly: Acetylcholinesterase (AChE) small molecule antagonists: fluorescence cell-based qHTS assay (AID 1347398; calls by dose curve; also: nearly all actives have a fitted effect of over 50% in size; also: potency is read from the fitted curve at half-maximal effect). The conditions noted are these: Potency: AChE activity. In short, it runs like this: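 Endogenous acetylcholinesterase of SH-SY5Y neuroblastoma cells is measured in situ. After overnight attachment and 30 min compound exposure, cells receive acetylthiocholine and Thiolite Green; fluorescence is read after 40 min at room temperature.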

The target is the same in experiment [11]. Put plainly: Acetylcholinesterase (AChE) small molecule antagonists: enzyme-based qHTS assay with human liver microsomes (AID 1347399; calls by dose curve; also: nearly all actives have a fitted effect of over 60% in size; also: potency is read from the fitted curve at half-maximal effect). The conditions noted are these: Potency: qHTS inhibition. In short, it runs like this:
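Recombinant human AChE (50 mU/mL in the enzyme mix) and human liver microsomes (0.25 mg/mL final) were preincubated with compound and NADPH (0.25 mg/mL final) for 30 min at 37 C. Acetylthiocholine/DTNB was then added; thiocholine was read colorimetrically after 10 min at room temperature.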

Experiment [12] addresses Estrogen receptor beta (Homo sapiens) (UniProt Q92731). Put plainly: qHTS assay to identify small molecule antagonists of the estrogen receptor beta (ER-beta) signaling pathway (AID 1259378; active = well fitted inhibition curve with a large enough effect in the signal ratio in the repeat runs, not every such curve was filed as active; the % refers to the signal ratio; also: % is scaled to controls: 0 for no effect and ±100 for the full control effect). In short, it runs like this:
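ER-beta-UAS-bla HEK293T cells in 2% charcoal-stripped FBS medium treated with compound plus 1nM final 17-beta-estradiol for 16 hr at 37C. Beta-lactamase reporter read by FRET substrate fluorescence after 2 hours at room temperature.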

Experiment [13] has as its target Estrogen receptor (Homo sapiens) (UniProt P03372). Put plainly: qHTS assay to identify small molecule agonists of the estrogen receptor alpha (ER-alpha) signaling pathway using the BG1 cell line (AID 743079). Also: % is scaled to controls: 0 for no effect and ±100 for the full control effect; nearly all actives have a fitted effect of over 20% in size. The settings on record: BG1Luc4E2 cells, ERE-luciferase agonist, 22 h.
The target is the same in experiment [14]. Put plainly: qHTS assay to identify small molecule agonists of the estrogen receptor alpha (ER-alpha) signaling pathway in the presence of an antagonist (AID 1259383; calls by dose curve; also: top concentration of the series differs between compounds; % is scaled to controls: 0 for no effect and ±100 for the full control effect; nearly all actives have a fitted effect of over 15% in size). The conditions noted are these: VM7Luc4E2 cells, ERE-luciferase, +ICI-182,780, 22 h; at 3.27 µM (top of the series).
Experiment [15] has as its target Nuclear receptor subfamily 1 group I member 2 (Homo sapiens) (UniProt O75469). Put plainly: CYP3A4 induction through human pregnane X receptor (PXR) by small molecules, qHTS assay (AID 1346984). Also: % is scaled to controls: 0 for no effect and ±100 for the full control effect; nearly all actives have a fitted effect of over 40% in size. In a few lines: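 qHTS, concentration-response format: HepG2 DPX-2 line, PXR/CYP3A4-luc. Exposure 24 h, 37C. Substrate Luciferin-IPA 3uM final, 3 h. Detection One-Glo, 30 min RT.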

Experiment [16] shares this target. Briefly: Human pregnane X receptor (PXR) activation by small molecules, qHTS assay (AID 1346985). Also: % is scaled to controls: 0 for no effect and ±100 for the full control effect; nearly all actives have a fitted effect of over 40% in size.
A short description of experiment [17]: qHTS assay to identify small molecule antagonists of the estrogen related receptor signaling pathway with the pleiotropic PPARgamma coactivator (PGC) from Tox21 10K library - cell viability counter screen (AID 1224840; active = well fitted cell-killing curve with a large enough effect in the repeat runs, not every such curve was filed as active; also: % is scaled to controls: 0 for no effect and ±100 for the full control effect; nearly all actives have a fitted effect of over 40% in size). The settings on record: PGC/ERR reporter cells viability, CellTiter-Fluor, 17.5 h. In a few lines:
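Here the PGC/ERR cells serve as a cytotoxicity control: they are exposed to compounds for 17.5 hours at 37 C, and live-cell signal is quantified using CellTiter-Fluor fluorescence.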

The target of experiment [18] is Estrogen receptor beta (Homo sapiens) (UniProt Q92731). Put plainly: qHTS assay to identify small molecule agonists of the estrogen receptor beta (ER-beta) signaling pathway (AID 1259377; active = well fitted activation curve with a large enough effect in the signal ratio in the repeat runs, not every such curve was filed as active; the % refers to the signal ratio; also: % is scaled to controls: 0 for no effect and ±100 for the full control effect). The settings on record: ER-beta-UAS-bla HEK293T, beta-lactamase FRET ratio, 16 h; at 92.4 µM (top of the series).
A short description of experiment [19]: qHTS assay to identify small molecule agonists of the estrogen receptor alpha (ER-alpha) signaling pathway in the presence of an antagonist - cell viability counter screen (AID 1259386).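 Also: cells exposed to compounds for 22 h at 37 °C before the viability read; % is scaled to controls: 0 for no effect and ±100 for the full control effect; nearly all actives have a fitted effect of over 30% in size.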 The settings on record: VM7Luc4E2 viability, CellTiter-Fluor fluorescence, 22 h; at 92.4 µM (top of the series). In short, it runs like this: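 ICI-182,780 at 10.0nM final accompanies the compound titration (15 concentrations, 22hr, 37C) on VM7Luc4E2 cells. The CellTiter-Fluor fluorescence readout runs in the same wells as the luciferase assay.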

In experiment [20] the target is Estrogen receptor (Homo sapiens) (UniProt P03372). Put plainly: qHTS assay to identify small molecule antagonists of the estrogen receptor alpha (ER-alpha) signaling pathway (AID 743069; active = well fitted curve in the direction sought with a large enough effect in the signal ratio in the repeat runs, not every such curve was filed as active; the % refers to the signal ratio; also: % is scaled to controls: 0 for no effect and ±100 for the full control effect). The conditions noted are these: HEK293 ER-alpha-UAS-bla, beta-lactamase ratio, antagonist mode.
Experiment [21] has the same target. Put plainly: qHTS assay to identify small molecule agonists of the estrogen receptor alpha (ER-alpha) signaling pathway (AID 743075; calls by dose curve).
Experiment [22] addresses Voltage-gated inwardly rectifying potassium channel KCNH2 (Homo sapiens) (UniProt Q12809). Briefly: Human Ether-a-go-go-Related Gene (hERG) channel small molecule antagonists: fluorescence cell-based qHTS assay (AID 1671200). Also: potency is read from the fitted curve at half-maximal effect; nearly all actives have a fitted effect of over 50% in size. The settings on record: hERG-U2OS cells, FluxOR thallium flux fluorescence. In short, it runs like this: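 Measured: Tl+ flux via fluorescence (480/540 nm) in hERG-expressing U2OS cells after 1 h dye loading at room temperature.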
Background: hERG is a cardiac potassium channel; its block is linked to QT prolongation.

On to `CC(Cc1ccc(O)cc1)NCC(O)c1cc(O)cc(O)c1` (stereo not drawn), for which the Potency entry in experiment [1], in experiment [3], in [5], in experiment [6], in experiment [9] and in experiment [10] was “inactive” in each case. The Potency entry in [11] is “inactive”. Also, the activity change in [2] was inactive: -0.698%. Besides, the activation was inactive: 0.234% in experiment [4] (at 61 µM (top of the series)) and inactive: 4.18% in experiment [7] (at 42.5 µM (top of the series)). For the same compound, in experiment [8], the activity, negative = inhibition was inactive: 0.139%.

For the compound `CCCC[N+](CCCC)(CCCC)CCCC`, in experiment [4] (at 61 µM (top of the series)), the activation was inactive: -0.723%. Also, the Potency result in experiment [5] and in experiment [12] was “inactive” each time.

Turning to `COC1CC(=C(c2cccs2)c2cccs2)C[N+](C)(C)C1` (stereo not drawn), in [4] (at 61 µM (top of the series)), the activation was inactive: 0.0389%. For the same compound, the Potency result in experiment [5] and in [12] was “inactive” throughout.

On to `COc1c2c(cc3c1OCO3)CCN(C)C2`, for which the activation in experiment [4] (at 61 µM (top of the series)) was inactive: 0.364%. The Potency result in experiment [5] and in [12] was “inactive” in each case.

As to `CCCCCCCCCCCCCCCC[n+]1ccccc1`, the Potency in [5] is active: 21.4 µM [middle of 4 runs].

Regarding `CCCC[N+]1(C)[C@@H]2CC(OC(=O)[C@H](CO)c3ccccc3)C[C@H]1[C@@H]1O[C@@H]12` (stereo partly drawn), the Potency result in [1], in [3], in experiment [6] and in [12] was “inactive” in each case. Also, the activity change in [2] was inactive: -2.6%. Further, the results for the activation in [4] (at 61 µM (top of the series)) and in [7] (at 42.5 µM (top of the series)) were inactive: 0.379% and inactive: -0.239%, respectively.

For `CC[N+]1(C)CCCC(OC(=O)C(O)(c2ccccc2)c2ccccc2)C1` (stereo not drawn), in experiment [4] (at 61 µM (top of the series)), the activation was inactive: 0.0776%. Moreover, in [5], the Potency entry is “inactive”.

`CN`: in experiment [4] (at 78.8 µM (top of the series)), the activation was inactive: 0.0956%.

Consider `C[C@H](CN1CCOCC1)C(C(=O)N1CCCC1)(c1ccccc1)c1ccccc1`, for which the Potency entry in experiment [5] was “inactive”.

On to `Cc1cccc(N)c1`, for which the Potency result in experiment [5] was “inactive”.

For `CCCC[n+]1ccccc1`, in experiment [5], the Potency entry is “inactive”.

For `Clc1ccc(CSC(Cn2ccnc2)c2ccc(Cl)cc2Cl)cc1` (stereo not drawn), the Potency entry in experiment [1] is “inactive”.

As for `Clc1ccc(COC(Cn2ccnc2)c2ccc(Cl)cc2Cl)cc1` (stereo not drawn), the Potency in experiment [1] was active: 23900 nM. The activation in experiment [7] (at 92.4 µM (top of the series)) is inactive: -9.97% and inactive: -10.7%.

For `CNC(C)(C)Cc1ccccc1`, the activation in [13] (at 32.5 µM (top of the series)) is inactive: -14.3%.

As for `OC[P+](CO)(CO)CO`, the values for the activation in experiment [13] (at 70.3 µM (top of the series)) and in experiment [13] (at 95 µM (top of the series)) were inactive: 3.49% and inactive: -19.5%, respectively.

On to `Nc1nc(N)c(N)c(N)n1`, for which the activation in experiment [13] (at 95 µM (top of the series)) was inactive: 3.01%.

Take `CCCCCCCCCCCCN=C(N)N`: the activity, negative = inhibition in experiment [5] was inactive: -2.78% [at 3.27 µM]. For the same compound, the activation in [14] was inactive: 1.01%.

As to `O=C(O)c1ccccc1O`, the Potency result in [5], in experiment [15] and in experiment [16] was “inactive” in each case.

`CCCCCCCCCC(CC)c1ccc(S(=O)(=O)O)cc1` (stereo not drawn): the viability change, negative = cytotoxic in [17] (at 42.5 µM (top of the series)) is inactive: -10%; in [17] (at 92.4 µM (top of the series)), inactive: -19% and inactive: -21.1% and inactive: -18.2%.

Turning to `Cc1ccc(OP(=O)(Oc2ccc(C)cc2)Oc2ccc(C)cc2)cc1`, the activation in [18] is inactive: 0.905%.

As for `O=C1C2(Cl)C3(Cl)C4(Cl)C(Cl)(Cl)C5(Cl)C3(Cl)C1(Cl)C5(Cl)C24Cl` (stereo not drawn), the activity change, negative = cytotoxicity in experiment [19] is inactive: -3.84%.

In the case of `CCC(N)Cc1c[nH]c2ccccc12` (stereo not drawn), the activity, negative = inhibition is inactive: -7.2% in [20] (at 69.4 µM (top of the series)) and inactive: -1.86% in experiment [20] (at 79.1 µM (top of the series)). In addition, in experiment [21], the Potency entry is “inactive”.

Regarding `Clc1ccc(C(Cn2ccnc2)OCc2csc3c(Cl)cccc23)c(Cl)c1` (stereo not drawn), the Potency result in experiment [21] is “inactive”.

`O=C(CCC1CCN(Cc2ccccc2)CC1)c1ccc2c(c1)NCCCC2`: the Potency was active: 1740 nM in [9], active: 617 nM in [10] and active: 3090 nM in [11].

Take `Cn1cc(C2=C(c3cn(C4CCN(Cc5ccccn5)CC4)c4ccccc34)C(=O)NC2=O)c2ccccc21`: the Potency in [22] was active: 1690 nM.
